# Laboratory results from PubChem BioAssay AID504845 (National Center for Advancing Translational Sciences (NCATS), 2011).
# By UniProt entry, the sequences of proteins in these tests, tags left out.
# UniProt P49798, whole entry: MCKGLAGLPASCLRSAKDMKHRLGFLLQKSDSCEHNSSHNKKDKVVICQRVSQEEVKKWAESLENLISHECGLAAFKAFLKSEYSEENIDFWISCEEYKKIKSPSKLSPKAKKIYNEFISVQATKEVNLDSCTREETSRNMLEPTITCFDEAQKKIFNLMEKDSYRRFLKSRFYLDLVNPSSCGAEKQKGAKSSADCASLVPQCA
# Values joined by “and” are separate entries in the source; they are usually repeats but may differ in a detail not shown here. Equal entries are not always repeated. Only a part is listed here, and it is no random draw. Some of these compounds have results that are not shown, active ones among them. Results filed as inconclusive are left out. Active and inactive are the calls of the source. Calls follow the shape of the dose curve; as a rule, active = well fitted inhibition curve with a large enough effect; inconclusive = small, poorly fitted or top-dose-only effect; inactive = no such curve, though single readings can be large or run the other way.
# Biological target: Regulator of G-protein signaling 4 (Homo sapiens) (UniProt P49798)
# Experiment: Inhibitors of Regulator of G Protein Signaling (RGS) 4: qHTS; also: nearly all actives have a fitted effect of over 75% in size
# Conditions: Transcreener GDP fluorescence polarization, RGS4-accelerated GTP hydrolysis; at 114 µM (top of the series)
# Description: G-protein-coupled receptors (GPCRs) are well-established targets for drug discovery and development. Members of the "regulator of G-protein signaling" (RGS)-protein superfamily have recently emerged as critical modulators of specific GPCR signaling pathways. […] Combining specific RGS domain inhibitors with existing GPCR agonists should potentiate cellular responses and could also increase the specificity of action of existing therapeutics. Small molecule modulators of RGS domain activity should also have clinical utility in inhibiting or potentiating the actions of endogenous GPCR agonists. In particular, the diversity of RGS proteins with highly localized and dynamically regulated distributions in the human brain makes this family of proteins attractive targets for pharmacotherapy of central nervous system (CNS) disorders such as Parkinson's disease, schizophrenia, and anxiety.
# This assay was used to screen the NIH Molecular Libraries Small Molecule Repository (MLSMR) in order to identify a small molecule that inhibits RGS4.
# NIH Chemical Genomics Center [NCGC]
# NIH Molecular Libraries Probe Centers Network [MLPCN]
# Assay Submitter (PI): David Siderovski, University of North Carolina Chapel Hill (School of Medicine)
# Two microliters of 500nM (2x working concentration) is dispensed into black medium-binding solid-bottom Kalypsys plates. Then with the Kalypsys pintool 23nl of control and compounds are transferred; the control compound is […] CCG-4986 (working concentration). After a 10 minute incubation at room temperature 2ul of antibody is added with the Kalypsys dispenser; (-)RGS4/Transcreener GDP solution in columns 3 and 4 which consisted of 10nM (2x working concentration) Alexa633, 20uM GTP, and 20 ug/ml GDP antibody and (+)RGS4/Transcreener GDP solution in columns 1,2, and 5 to 48 which consists of 900nM RGS4 (2x working concentration), 10nM Alexa633, 20 ug/ml GDP antibody. The plate is centrifuged at 1000 RPM for 15 seconds to remove any possible bubbles and then incubated for 5 minutes at ambient room temperature. An initial fluorescent polarization read (620 nm/688 nm) is performed on the Envision before the plate is incubated for 90 minutes at 30 deg C at a relative humidity of 80%. The plate is once more centrifuged at 1000 RPM for 15 seconds and another Envision fluorescent polarization (620 nm/688 nm) read is carried out.
# % is scaled to controls: 0 for no effect and ±100 for the full control effect.
row,Compound,"activity change, negative = inhibition"
1,O=C(OC1CN2CCC1CC2)C(CO)(c1ccccc1)c1ccccc1 (centres undefined),inactive: 4.53%
2,COc1cccc(C(=O)NCC2(N3CCOCC3)CCCCC2)c1,inactive: -2.65%
3,CC(C)COc1ccc(C(=O)NCC2(N(C)C)CCCCC2)cc1,inactive: -4.11%
4,COc1ccc(Br)c(C(=O)NCC2(N3CCCCC3)CCCCC2)c1,inactive: 14.8%
5,Cc1cccc(C(=O)NCC2(N(C)C)CCCCC2)c1,inactive: 9.31%
6,COc1cc(C(=O)NCC2(N(C)C)CCCCC2)cc(OC)c1OC,inactive: 3.01%
7,CN(C)c1cccc(C(=O)NCC2(N(C)C)CCCCC2)c1,inactive: -4.66%
8,O=C(OCCN1CCCC1)C(O)(c1ccccc1)c1ccccc1,inactive: 13.9%
9,CC(C)Oc1ccc(C(=O)NCC2(N(C)C)CCCCC2)cc1,inactive: 24.5% and inactive: -11.2%
10,CN(C)C1(CNC(=O)c2ccc(Br)cc2)CCCCC1,inactive: -7.3%
11,COc1cc(C(=O)NCC2(N(C)C)CCCCC2)c([N+](=O)[O-])cc1OC,inactive: 4.84%
12,COc1ccc(C(=O)NCC2(N(C)C)CCCCC2)cc1Cl,inactive: 23.4%
13,COc1ccc(Cl)cc1C(=O)NCC1(N(C)C)CCCCC1,inactive: -2.42%
14,COc1cccc(C(=O)NCC2(N3CCCCC3)CCCCC2)c1,inactive: -8.66%
15,O=C(NCC1(N2CCCCC2)CCCCC1)c1cccc(Cl)c1,inactive: -12.8%
16,CN(C)c1ccc(C(=O)NCC2(N(C)C)CCCCC2)cc1,inactive: 14.2%
17,CN(C)C1(CNC(=O)c2ccccc2[N+](=O)[O-])CCCCC1,inactive: -13.9%

row,Compound,"activity change, negative = inhibition"
1,Cc1ccccc1C(=O)NCC1(N2CCCCC2)CCCCC1,inactive: 2.68%
2,CCCCOc1ccccc1C(=O)NCC1(N(C)C)CCCCC1,inactive: 27.6%
3,O=C(NCC1(N2CCCCC2)CCCCC1)c1cc(F)c(F)cc1Cl,inactive: -31.2%
4,C=CCN1CCN(CCOC(=O)C(O)(c2ccccc2)c2ccccc2)CC1,inactive: -8.15%
5,O=C(NCC1(N2CCCCC2)CCCCC1)c1cccc(Br)c1,inactive: 14.7%
6,Cc1cc(C(=O)NCC2(N3CCCCC3)CCCCC2)ccc1[N+](=O)[O-],inactive: 18.7%
7,CCN1CCCC(OC(=O)C2(O)c3ccccc3C=Cc3ccccc32)C1 (centres undefined),inactive: -41.4%
8,CCOc1cccc(C(=O)NCC2(N(C)C)CCCCC2)c1,inactive: 2.83%
9,COc1ccc(C(=O)NCC2(N(C)C)CCCCC2)cc1,inactive: -2.76%
10,O=C(NCC1(N2CCCCC2)CCCCC1)c1cc([N+](=O)[O-])ccc1Cl,inactive: -14.7%
11,CN1[C@@H]2CC[C@H]1CC(OC(=O)C(O)(c1ccccc1)c1ccccc1)C2 (some centres undefined),inactive: 17.1%
12,CC(C)N1C(=O)CC2(CCN(CCOC(=O)C(O)(c3ccccc3)c3ccccc3)CC2)C1=O,inactive: 4.37%
13,COc1cc(SC)ccc1C(=O)NCC1(N(C)C)CCCCC1,inactive: 18.3%
14,CN(C)C1(CNC(=O)c2cccc(Cl)c2)CCCCC1,inactive: -12.5%
15,CCN(CC)CC(C)C(C)OC(=O)C(O)(c1ccccc1)c1ccccc1 (centres undefined),inactive: 3.11%
16,CN(C)C1(CNC(=O)c2ccccc2F)CCCCC1,inactive: -15.1%
17,Cc1ccc(C(=O)NCC2(N3CCCCC3)CCCCC2)cc1,inactive: -4.65%
